This passage reports IC50 results from ChEMBL document CHEMBL4118196, “Design and synthesis of a series of bioavailable fatty acid synthase (FASN) KR domain inhibitors for cancer therapy” (Bioorg Med Chem Lett, 2018).

By UniProt entry, the sequences of proteins in these tests, tags left out.
UniProt P49327, whole entry: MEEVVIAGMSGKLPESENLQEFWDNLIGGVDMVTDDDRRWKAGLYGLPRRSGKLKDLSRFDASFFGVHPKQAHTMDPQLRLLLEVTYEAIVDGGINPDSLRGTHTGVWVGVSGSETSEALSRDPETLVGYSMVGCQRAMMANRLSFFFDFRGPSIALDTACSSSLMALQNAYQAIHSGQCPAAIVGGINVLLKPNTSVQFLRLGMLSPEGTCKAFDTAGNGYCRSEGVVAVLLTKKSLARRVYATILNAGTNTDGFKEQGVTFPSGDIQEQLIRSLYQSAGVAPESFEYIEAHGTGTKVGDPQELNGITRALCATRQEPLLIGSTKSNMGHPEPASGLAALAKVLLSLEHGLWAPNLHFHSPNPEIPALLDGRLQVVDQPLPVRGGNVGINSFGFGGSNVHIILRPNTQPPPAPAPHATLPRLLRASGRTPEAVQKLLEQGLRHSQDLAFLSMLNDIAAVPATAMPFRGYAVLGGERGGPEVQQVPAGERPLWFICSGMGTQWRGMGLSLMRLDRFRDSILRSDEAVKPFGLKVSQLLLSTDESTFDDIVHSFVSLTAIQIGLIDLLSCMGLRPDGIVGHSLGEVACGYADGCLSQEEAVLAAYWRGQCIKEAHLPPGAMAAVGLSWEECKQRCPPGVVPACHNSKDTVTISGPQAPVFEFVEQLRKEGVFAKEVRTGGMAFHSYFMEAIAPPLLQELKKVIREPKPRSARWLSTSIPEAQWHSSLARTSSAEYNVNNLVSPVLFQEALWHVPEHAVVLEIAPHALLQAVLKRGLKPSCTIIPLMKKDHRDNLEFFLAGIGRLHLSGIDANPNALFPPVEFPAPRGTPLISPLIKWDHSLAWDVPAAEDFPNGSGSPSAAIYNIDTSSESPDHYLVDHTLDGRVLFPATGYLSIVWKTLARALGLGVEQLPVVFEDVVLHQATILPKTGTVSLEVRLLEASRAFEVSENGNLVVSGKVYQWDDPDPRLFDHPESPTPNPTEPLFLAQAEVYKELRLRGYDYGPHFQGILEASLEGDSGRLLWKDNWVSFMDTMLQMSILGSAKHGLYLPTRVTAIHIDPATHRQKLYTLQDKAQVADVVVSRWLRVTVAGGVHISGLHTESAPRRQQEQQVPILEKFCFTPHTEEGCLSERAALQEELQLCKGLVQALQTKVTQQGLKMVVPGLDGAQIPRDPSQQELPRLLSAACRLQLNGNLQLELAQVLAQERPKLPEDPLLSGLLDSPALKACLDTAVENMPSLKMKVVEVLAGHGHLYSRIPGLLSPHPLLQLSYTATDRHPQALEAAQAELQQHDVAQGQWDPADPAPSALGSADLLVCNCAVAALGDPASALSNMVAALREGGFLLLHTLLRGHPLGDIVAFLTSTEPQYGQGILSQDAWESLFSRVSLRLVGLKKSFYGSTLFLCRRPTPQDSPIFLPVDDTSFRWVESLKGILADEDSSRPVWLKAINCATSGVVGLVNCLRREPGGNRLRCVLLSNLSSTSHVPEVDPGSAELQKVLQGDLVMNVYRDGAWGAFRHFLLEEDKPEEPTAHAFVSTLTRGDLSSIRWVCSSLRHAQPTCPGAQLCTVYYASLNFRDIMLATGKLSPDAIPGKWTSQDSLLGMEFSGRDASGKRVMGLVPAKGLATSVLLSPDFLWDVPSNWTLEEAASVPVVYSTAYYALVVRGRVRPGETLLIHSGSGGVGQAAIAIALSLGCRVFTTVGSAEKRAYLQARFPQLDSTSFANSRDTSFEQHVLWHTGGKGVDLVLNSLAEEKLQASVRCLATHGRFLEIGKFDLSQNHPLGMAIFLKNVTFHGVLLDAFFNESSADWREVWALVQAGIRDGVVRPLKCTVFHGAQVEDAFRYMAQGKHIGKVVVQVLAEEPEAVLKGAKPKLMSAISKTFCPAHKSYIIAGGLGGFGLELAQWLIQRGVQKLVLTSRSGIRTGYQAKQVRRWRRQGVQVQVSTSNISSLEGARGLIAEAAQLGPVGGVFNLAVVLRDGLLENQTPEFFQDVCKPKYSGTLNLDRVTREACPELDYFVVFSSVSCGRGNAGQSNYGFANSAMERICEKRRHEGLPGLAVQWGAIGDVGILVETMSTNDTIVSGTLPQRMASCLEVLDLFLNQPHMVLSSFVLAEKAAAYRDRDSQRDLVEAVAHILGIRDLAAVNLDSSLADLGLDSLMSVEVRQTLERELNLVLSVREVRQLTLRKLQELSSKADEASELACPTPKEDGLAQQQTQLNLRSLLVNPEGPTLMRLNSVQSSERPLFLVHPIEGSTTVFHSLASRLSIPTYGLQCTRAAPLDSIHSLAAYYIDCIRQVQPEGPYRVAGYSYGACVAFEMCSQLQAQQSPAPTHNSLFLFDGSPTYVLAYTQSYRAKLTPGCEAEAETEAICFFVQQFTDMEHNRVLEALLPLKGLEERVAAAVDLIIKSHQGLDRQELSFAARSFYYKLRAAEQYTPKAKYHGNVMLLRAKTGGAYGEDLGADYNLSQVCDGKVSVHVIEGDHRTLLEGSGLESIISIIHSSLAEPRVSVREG

Some results are limits rather than exact numbers.

The target of this assay is Fatty acid synthase (Homo sapiens, UniProt P49327).
On to `O=C(C1CC1)N1CC[C@@H](CN2C(=O)C3(CC3)N=C2c2ccc(-c3ccc4cnccc4c3)cc2)C1`, for which the half-inhibitory concentration (IC50) is 20 nM.

As to `Cn1ncc2cc(-c3ccc(C4=NC5(CC5)C(=O)N4C[C@@H]4CCN(C(=O)C5CC5)C4)c(F)c3)ccc21`, it took 22 nM to reach half-maximal inhibition (IC50).

Compound `O=C(C1CC1)N1CC[C@@H](CN2C(=O)C3(CC3)N=C2c2ccc(-c3ccc4occc4c3)cc2)C1` yielded a concentration for half-maximal inhibition (IC50) of 46 nM.

`O=C(C1CC1)N1CC[C@@H](CN2C(=O)C3(CC3)N=C2c2ccc(-c3cnc4ccccc4c3)cc2)C1` displayed an IC50 of 120 nM.

With `CC(=O)N1CCC2(CC1)N=C(c1ccc(-c3ccc4c(cnn4C)c3)cc1)N(C[C@@H]1CCN(C(=O)C3CC3)C1)C2=O`, the IC50 is 200 nM.

As for `Cn1ncc2cc(-c3ccc(C4=NC5(CC5)C(=O)N4C[C@@H]4CCCN(C(=O)C5CC5)C4)cc3)ccc21`, the IC50 is over 10000 nM.

As for `Cn1ncc2cc(-c3ccc(C4=NC5(CC5)C(=O)N4C[C@H]4CCCN(C(=O)C5CC5)C4)cc3)ccc21`, the IC50 came out at 8510 nM.

Regarding `Cc1cc(C2=NC3(CC3)C(=O)N2C[C@@H]2CCN(C(=O)C3CC3)C2)ccc1-c1ccc2c(cnn2C)c1`, the half-inhibitory concentration (IC50) turned out to be 300 nM.

In the case of `O=C(C1CC1)N1CC[C@@H](CN2C(=O)C3(CC3)N=C2c2ccc(-c3ccc4[nH]ncc4c3)cc2)C1`, the IC50 came to 32 nM.

For `Cn1ncc2cc(-c3ccc(C4=NC5(CC5)C(=O)N4CC4CN(C(=O)C5CC5)C4)cc3)ccc21`, the half-inhibitory concentration (IC50) is 69 nM.

For the compound `Cc1cc(-c2ccc3c(cnn3C)c2)ccc1C1=NC2(CC2)C(=O)N1C[C@@H]1CCN(C(=O)C2CC2)C1`, the IC50 stood at 51 nM.

Take `O=C(C1CC1)N1CC[C@@H](CN2C(=O)C3(CC3)N=C2c2ccc(-c3ccc4ncccc4c3)cc2)C1`: the half-inhibitory concentration (IC50) is 160 nM.

Broadly, the IC50 is the point on the concentration scale where inhibition reaches its midpoint.
